Data on one compound can be found in US7893064B2, “Hydrazone derivatives as kinase inhibitors” (Janssen Pharmaceutica NV, priority 2006, dated 2011).

By UniProt entry, the sequences of proteins in these tests, tags left out. Residues count along the entry.
UniProt P00533, 669-1210 limits assumed: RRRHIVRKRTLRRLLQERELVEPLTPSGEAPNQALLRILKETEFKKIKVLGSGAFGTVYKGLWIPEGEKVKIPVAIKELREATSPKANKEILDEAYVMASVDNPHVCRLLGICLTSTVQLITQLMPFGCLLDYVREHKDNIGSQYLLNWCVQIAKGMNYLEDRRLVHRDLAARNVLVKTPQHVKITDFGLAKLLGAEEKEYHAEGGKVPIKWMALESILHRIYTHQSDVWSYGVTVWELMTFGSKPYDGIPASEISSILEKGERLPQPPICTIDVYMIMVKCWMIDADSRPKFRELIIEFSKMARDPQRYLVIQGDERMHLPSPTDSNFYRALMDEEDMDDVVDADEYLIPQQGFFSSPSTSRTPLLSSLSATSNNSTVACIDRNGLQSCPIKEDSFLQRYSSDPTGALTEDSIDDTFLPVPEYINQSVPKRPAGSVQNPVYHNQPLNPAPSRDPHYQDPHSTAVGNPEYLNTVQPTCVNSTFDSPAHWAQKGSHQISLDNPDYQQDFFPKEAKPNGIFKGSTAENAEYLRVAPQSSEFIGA

The test concerns the target T1, EGFR kinase (GST fusion of intracellular portion of EGFR, NM_005228) (Homo sapiens, UniProt P00533).
T1 construct: The intracellular portion of EGFR started at nucleotide 2189 (corresponding to amino acid 667) and ended at the termination codon; made in house; host or cells: Sf9 insect cells (baculovirus)
Description: EGFR Kinase Assay. The settings on record: GSTEGFR, ATP 5 μM, biotinylated polyGluTyr, 33P Flashplate; read-out: EGFR Inhibition (%) IC50. The test is classed as biochemical. The text has this:
The portion was PCR amplified with primers that added the lambda attB sequences to each end, recombined into an entry vector, then into a GST destination vector (as described in Gateway Technologies Manual by Invitrogen Corporation, Carlsbad, Calif.).
The destination vector was recombined in the DH10BAC strain of bacteria to produce a bacmid. The bacmid was transfected into Sf9 cells and the supernatant containing the baculovirus was collected. The GSTEGFR protein was purified using large cultures of Sf9 cells infected with stock virus. After an appropriate period of time, the cells were collected and lysed. The GSTEGFR was then purified from the lysate on Glutathione-Sepharose columns (as described by Amersham Biosciences, Buckinghamshire, United Kingdom).
The free biotin was separated from the biotinylated polyGluTyr on a gel filtration column. […]
The plates were incubated at 30° C. for 1 hr with shaking. […] The plates were then sealed and read on the TopCount scintillation counter.
Test compounds were assayed in triplicate at 16 concentrations at half-log dilutions starting at 200 uM. A maximum and minimum signal for the assay was determined on each plate. The percent inhibition of a test compound was calculated according to the formula […]

Broadly, the IC50 is the concentration that inhibits the measured activity by half. In the case of `Nc1ncnc(Nc2ccc3c(cnn3Cc3cccc(F)c3)c2)c1C=NN1CCCCC1` [Cpd 3, N-[1-(3-fluoro-benzyl)-1H-indazol-5-yl]-5-(piperidin-1-yliminomethyl)-pyrimidine-4,6-diamine], the IC50 is 29.8 nM.
